The values that follow come from patent US20260382731A1, “BCL-2/BCL-XL PROTEIN DEGRADER AND USE THEREOF” (published 2026).

The chains behind the UniProt entries cited, without tags or fusion partners.
UniProt Q07817, whole entry: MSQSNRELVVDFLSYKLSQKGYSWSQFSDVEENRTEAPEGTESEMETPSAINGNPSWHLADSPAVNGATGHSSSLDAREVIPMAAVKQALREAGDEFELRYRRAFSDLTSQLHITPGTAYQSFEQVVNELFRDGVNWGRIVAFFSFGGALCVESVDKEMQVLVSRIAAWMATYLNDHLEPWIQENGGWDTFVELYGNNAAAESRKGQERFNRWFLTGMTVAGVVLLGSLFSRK

Molecules are shown by their SMILES.

A word on the DC50: it is the concentration giving 50% degradation. In general, IC50 refers to the concentration at which inhibition is half-maximal.

Assay [1] deals with BCL-XL (Homo sapiens, UniProt Q07817). The assay can be described thus: Immunoblotting: BCL-XL protein degradation. To be noted: read-out: MDA-MB-231 degradation DC50, MDA-MB-231 cells. From the text: Cells were collected and lysed in a lysis buffer (Cat. No. BP-115DG, Boston Bio Products, Ashland, MA, USA) containing protease and phosphatase inhibitor cocktails (Cat. No. PPC1010, Sigma-Aldrich, St. Louis, MO, USA). An equal amount of protein lysates was separated on precasted 4-20% Tris-glycine gels (Mini-PROTEAN TGX, Cat. No. 456-1094, Bio-Rad, Hercules, CA, USA). Thereafter, the proteins were transferred to PVDF membranes (Cat. No. LC2002, MilliporeSigma, Billerica, MA, USA). The membranes were blocked with 5% w/v nonfat dry milk in TBS+Tween-20 (0.1% v/v) and then probed with primary antibodies overnight at 4 °C. Next day, the membranes were washed and incubated with appropriate horseradish peroxidase (HRP)-conjugated secondary antibodies. Primary antibodies against BCL-XL (Cat. No. 2762) and Pactin (Cat. No. 4970) and the secondary HRP-linked antibody (Cat. No. 7074) were purchased from Cell Signaling Technology (Danvers, MA, USA). The signal was detected using the ECL substrate (Cat. No. WBKLS0500, MilliporeSigma, Billerica, MA, USA) and captured on the ChemiDoc MP Imaging System (Bio-Rad, Hercules, CA, USA). The band intensities were calculated on the ImageJ software and normalized to equal loading control β-actin.
For orientation: In western blotting, separated proteins are transferred to a membrane and probed.

Assay [2] has as its system MOLT-4 cells. As to the kind of experiment: Cell viability assay, MOLT-4 (CellTiter-Glo, 72 h). To be noted: read-out: MOLT4 Cell viability IC50. (In general: In ATP-based viability assays light output follows the ATP content of the culture.)
Assay [3] has as its system human platelets. As to the kind of experiment: Platelet viability test (CellTiter-Glo, 72 h). To be noted: read-out: Human platelet IC50. The protocol: Human platelet-rich Plasma (PRP) was purchased from Milestone® Biotechnology Limited. PRPS are used for experiments immediately after arrival. Transfer PRP to a 50-mL polypropylene EP tube containing 5 mL citrate buffer (cat. no. sc-214744, Santa Cruz Biotechnology). To avoid clotting, The final concentration of prostaglandin E1 (PGE1, cat. no. sc-201223A, Santa Cruz Biotechnology) and adenosine diphosphonase triphosphate (cat. no. A6410-200UN, 2 units/mL, respectively) were added to the EP tube. Sigma-Aldrich). Slightly shake and mix the liquid in the EP tube, centrifuge it at 1200 g for 10 minutes, and separate the platelets. HEPES buffer benchtop solution (10 mM HEPES, 135 mM NaCl, 2.8 mM KCl, 1 mM MgCl2, 2 mM CaCl2), 10 mm Hepes, 135 mm NaCl, 2.8 mm KCL, 1 mm MgCl2, 2 mm CaCl2)) was prepared with 2 mL of prostaglandin E1 and 2 units/mL of adenosine bisphosphonase triphosphate. 12 mM NaHCO3, 0.4 mM NaH2PO4, 0.25% BSA and 5.5 mM glucose, pH 7.4; cat. no. Cat. No. Cat. #:25-02580, Tiandz) continuously and gently clean the platelet precipitates after centrifugation. After washing, platelets were slowly reinserted to HEPES buffer table solution containing 1 μM of prostaglandin E1 and 2 units/mL of adenosine bisphosphonase triphosphate. Platelets were counted by Vi-cell XR (Backman) cell counter. Platelet activity tests were performed: platelets were resuscitated into a HEPES buffer solution containing 1 µM of prostaglandin E1 and 2 units/mL of adenosine bisphosphonase triphosphate and 10% FBS, counted, and inoculated into 96-well plates with 5×10^5 platelets per well. Different concentrations of the compound to be detected (starting at 10 μM, diluted 3 times) were added to 96-well plates and incubated in the cell incubator for 72 h. 72 h after administration, platelet activity was detected by CellTiter-Glo™ luminescence assay.

As to `CCn1c(C)c(C(=O)N2CCN(C)CC2)c(-c2cc(F)cc(N3CCN(c4ccc(NS(=O)(=O)c5ccc(N[C@H](CCN6CCN(C(=O)CCCCCC(=O)N[C@H](C(=O)N7C[C@H](O)C[C@H]7C(=O)N[C@@H](C)c7ccc(-c8scnc8C)cc7)C(C)(C)C)CC6)CSc6ccccc6)c(S(=O)(=O)C(F)(F)F)c5)cc4)CC3)c2)c1-c1ccc(Cl)cc1`, the DC50 in assay [1] was found to be 0.0008 µM. Further, the IC50 in assay [2] stood at 0.014 µM; in assay [3], 0.068 µM.

In the case of `Cc1ncsc1-c1ccc([C@H](C)NC(=O)[C@@H]2C[C@@H](O)CN2C(=O)[C@@H](NC(=O)CCCCCC(=O)N2CCN(CC[C@H](CSc3ccccc3)Nc3ccc(S(=O)(=O)Nc4ccc(N5CCN(c6cc(F)cc(-c7c(C(=O)N8CC[C@H](O)C8)c(C)n(C)c7-c7ccccc7)c6)CC5)cc4)cc3S(=O)(=O)C(F)(F)F)CC2)C(C)(C)C)cc1`, the DC50 in assay [1] was 0.015 µM. The IC50 is 0.11 µM in assay [2] and more than 10 µM in assay [3].

On to `CCn1c(C)c(C(=O)N2CC[C@H](O)C2)c(-c2cc(F)cc(N3CCN(c4ccc(NS(=O)(=O)c5ccc(N[C@H](CCN6CCN(C(=O)CCCCCC(=O)N[C@H](C(=O)N7C[C@H](O)C[C@H]7C(=O)N[C@@H](C)c7ccc(-c8scnc8C)cc7)C(C)(C)C)CC6)CSc6ccccc6)c(S(=O)(=O)C(F)(F)F)c5)cc4)CC3)c2)c1-c1ccccc1`, for which the DC50 in assay [1] came to 0.011 µM. Further, the results for the IC50 in assay [2] and in assay [3] were 0.02 µM and 0.455 µM, respectively.

Take `CCn1c(C)c(C(=O)NCCN(C)C)c(-c2cc(F)cc(N3CCN(c4ccc(NS(=O)(=O)c5ccc(N[C@H](CCN6CCN(C(=O)CCCCCC(=O)N[C@H](C(=O)N7C[C@H](O)C[C@H]7C(=O)N[C@@H](C)c7ccc(-c8scnc8C)cc7)C(C)(C)C)CC6)CSc6ccccc6)c(S(=O)(=O)C(F)(F)F)c5)cc4)CC3)c2)c1-c1ccc(F)cc1`: the DC50 in assay [1] is 0.004 µM. Moreover, the figures for the IC50 in assay [2] and in assay [3] were 0.014 µM and 0.078 µM, respectively.

`CCn1c(C)c(C(=O)N2C[C@@H](O)[C@@H](O)C2)c(-c2cc(F)cc(N3CCN(c4ccc(NS(=O)(=O)c5ccc(N[C@H](CCN6CCN(C(=O)CCCCCC(=O)N[C@H](C(=O)N7C[C@H](O)C[C@H]7C(=O)N[C@@H](C)c7ccc(-c8scnc8C)cc7)C(C)(C)C)CC6)CSc6ccccc6)c(S(=O)(=O)C(F)(F)F)c5)cc4)CC3)c2)c1-c1ccc(F)cc1`: the DC50 in assay [1] amounted to 0.007 µM. Further, the values for the IC50 in assay [2] and in assay [3] were 0.045 µM and 3.9 µM, respectively.

As for `CCn1c(C)c(S(=O)(=O)N2CC3COCC3C2)c(-c2cc(F)cc(N3CCN(c4ccc(NS(=O)(=O)c5ccc(N[C@H](CCN6CCN(C(=O)CCCCCC(=O)N[C@H](C(=O)N7C[C@H](O)C[C@H]7C(=O)N[C@@H](C)c7ccc(-c8scnc8C)cc7)C(C)(C)C)CC6)CSc6ccccc6)c(S(=O)(=O)C(F)(F)F)c5)cc4)CC3)c2)c1-c1ccc(F)cc1` (stereo partly drawn), the DC50 in assay [1] amounted to 0.028 µM. The IC50 in assay [2] was determined as 0.012 µM; in assay [3], 0.4 µM.

Take `Cc1ncsc1-c1ccc([C@H](C)NC(=O)[C@@H]2C[C@@H](O)CN2C(=O)[C@@H](NC(=O)CCCCCC(=O)N2CCN(CC[C@H](CSc3ccccc3)Nc3ccc(S(=O)(=O)Nc4ccc(N5CCN(c6cc(F)cc(-c7c(C(=O)N8CC[C@H](O)C8)c(C)n(C)c7-c7ccc(F)cc7)c6)CC5)cc4)cc3S(=O)(=O)C(F)(F)F)CC2)C(C)(C)C)cc1`: the DC50 in assay [1] was determined as 0.018 µM. The IC50 was 0.16 µM in assay [2] and more than 10 µM in assay [3].

`CCn1c(C)c(C(=O)NCCC2CCOCC2)c(-c2cc(F)cc(N3CCN(c4ccc(NS(=O)(=O)c5ccc(N[C@H](CCN6CCN(CCCCCCC(=O)N[C@H](C(=O)N7C[C@H](O)C[C@H]7C(=O)N[C@@H](C)c7ccc(-c8scnc8C)cc7)C(C)(C)C)CC6)CSc6ccccc6)c(S(=O)(=O)C(F)(F)F)c5)cc4)CC3)c2)c1-c1ccc(F)cc1`: the DC50 in assay [1] stood at 0.004 µM. Further, the IC50 turned out to be 0.017 µM in assay [2] and 0.563 µM in assay [3].

Turning to `CCn1c(C)c(S(C)(=O)=O)c(-c2cc(F)cc(N3CCN(c4ccc(NS(=O)(=O)c5ccc(N[C@H](CCN6CCN(C(=O)C7CCN(CC(=O)N[C@H](C(=O)N8C[C@H](O)C[C@H]8C(=O)N[C@@H](C)c8ccc(-c9scnc9C)cc8)C(C)(C)C)CC7)CC6)CSc6ccccc6)c(S(=O)(=O)C(F)(F)F)c5)cc4)CC3)c2)c1-c1ccc(F)cc1`, in assay [1], the DC50 worked out at 0.032 µM. Further, the IC50 in assay [2] is 0.015 µM; in assay [3], 0.232 µM.

In the case of `CCn1c(C)c(S(C)(=O)=O)c(-c2cc(F)cc(N3CCN(c4ccc(NS(=O)(=O)c5ccc(N[C@H](CCN6CCN(CCCCCC(=O)N[C@H](C(=O)N7C[C@H](O)C[C@H]7C(=O)NC7(c8ccc(-c9scnc9C)cc8)CC7)C(C)(C)C)CC6)CSc6ccccc6)c(S(=O)(=O)C(F)(F)F)c5)cc4)CC3)c2)c1-c1ccc(F)cc1`, in assay [1], the DC50 is 0.006 µM. The results for the IC50 in assay [2] and in assay [3] were 0.021 µM and 0.04 µM, respectively.

Turning to `CCn1c(C)c(S(=O)(=O)N2CC[C@](C)(O)C2)c(-c2cc(F)cc(N3CCN(c4ccc(NS(=O)(=O)c5ccc(N[C@H](CCN6CCN(C(=O)CCCCCC(=O)N[C@H](C(=O)N7C[C@H](O)C[C@H]7C(=O)N[C@@H](C)c7ccc(-c8scnc8C)cc7)C(C)(C)C)CC6)CSc6ccccc6)c(S(=O)(=O)C(F)(F)F)c5)cc4)CC3)c2)c1-c1ccc(F)cc1`, the DC50 in assay [1] stood at 0.031 µM. In addition, the IC50 was 0.009 µM in assay [2] and 0.32 µM in assay [3].

With `CCn1c(C)c(C(=O)N2CC[C@@H](NC(C)=O)C2)c(-c2cc(F)cc(N3CCN(c4ccc(NS(=O)(=O)c5ccc(N[C@H](CCN6CCN(C(=O)CCCCCC(=O)N[C@H](C(=O)N7C[C@H](O)C[C@H]7C(=O)N[C@@H](C)c7ccc(-c8scnc8C)cc7)C(C)(C)C)CC6)CSc6ccccc6)c(S(=O)(=O)C(F)(F)F)c5)cc4)CC3)c2)c1-c1ccc(F)cc1`, the DC50 in assay [1] amounted to 0.026 µM. The concentration for half-maximal inhibition (IC50) in assay [2] is 0.01 µM; in assay [3], 0.68 µM.

Consider `CCn1c(C)c(C(=O)N2CCN(C)CC2)c(-c2cc(F)cc(N3CCN(c4ccc(NS(=O)(=O)c5ccc(N[C@H](CCN6CCN(C(=O)CCCCCC(=O)N[C@H](C(=O)N7C[C@H](O)C[C@H]7C(=O)N[C@@H](C)c7ccc(-c8scnc8C)cc7)C(C)(C)C)CC6)CSc6ccccc6)c(S(=O)(=O)C(F)(F)F)c5)cc4)CC3)c2)c1-c1ccc(F)cc1`, for which the DC50 in assay [1] was found to be 0.006 µM. Also, the IC50 in assay [2] amounted to 0.024 µM; in assay [3], 0.134 µM.

Regarding `CCn1c(C)c(C(=O)NCC2COCCO2)c(-c2cc(F)cc(N3CCN(c4ccc(NS(=O)(=O)c5ccc(N[C@H](CCN6CCN(CCCCCCC(=O)N[C@H](C(=O)N7C[C@H](O)C[C@H]7C(=O)N[C@@H](C)c7ccc(-c8scnc8C)cc7)C(C)(C)C)CC6)CSc6ccccc6)c(S(=O)(=O)C(F)(F)F)c5)cc4)CC3)c2)c1-c1ccc(F)cc1` (stereo partly drawn), the DC50 in assay [1] was 0.003 µM. Besides, the IC50 was 0.0098 µM in assay [2] and 0.184 µM in assay [3].

For `CCn1c(C)c(C(=O)N2CCC(O)(CF)C2)c(-c2cc(F)cc(N3CCN(c4ccc(NS(=O)(=O)c5ccc(N[C@H](CCN6CCN(C(=O)CCCCCC(=O)N[C@H](C(=O)N7C[C@H](O)C[C@H]7C(=O)N[C@@H](C)c7ccc(-c8scnc8C)cc7)C(C)(C)C)CC6)CSc6ccccc6)c(S(=O)(=O)C(F)(F)F)c5)cc4)CC3)c2)c1-c1ccc(F)cc1` (stereo partly drawn), the DC50 in assay [1] came out at 0.01 µM. Besides, the IC50 was determined as 0.02 µM in assay [2] and 4.12 µM in assay [3].
